# Measured values as given in PubChem BioAssay AID720494 (Broad Institute, 2013).
# This is a selection; strong and weak results do not stand in their true shares. Activity calls are given as the source filed them. The limit is not given here; nearly all actives have AC50 up to about 14 µM.
# Assay: compounds quenching or disrupting AlphaScreen beads readout – biochemical, cherry-picked samples, luminescence, artefact control, dose response (AID 720494)
# Settings: AlphaScreen interference counter-screen, signal luminescence; at 12 µM (top of the series)
smiles,measurement,value
CCC(c1nnnn1C1CCCCC1)N1CCC(n2c(=O)[nH]c3ccccc32)CC1 (stereo unspecified),"activity change, negative = inhibition",inactive: -28.8%
